In PubChem BioAssay AID624287 (National Center for Advancing Translational Sciences (NCATS), 2012) one finds activation (cAMP increase) data, which are given here for 82 compounds.

The structures appear in SMILES notation. Only a part is listed here, and it is no random draw. Results filed as inconclusive are left out. Some structures show a salt or complex split into parts, the way the source records it. The source made the active and inactive calls. The call rests on the fitted dose curve; in most records, active means well fitted activation curve with a large enough effect; inconclusive means small, poorly fitted or top-dose-only effect, or another doubt; inactive means no such curve, though single readings can be large or run the other way; cell line not stated here.

A short description of this assay: qHTS for Agonist of gsp, the Etiologic Mutation Responsible for Fibrous Dysplasia/McCune-Albright Syndrome: qHTS.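 Further: phosphodiesterase inhibitor Ro 20-1724 added with compounds to block cAMP breakdown; nearly all actives have a fitted effect of over 60% in size.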 The following applies: gsp mutant cells, cAMP HTRF, 30 min; at 76.9 µM (top of the series) unless noted. In general terms: In qHTS, concentration-response curves come from the screen itself.
`c1ccc(CN2CCC(Nc3ccccc3)CC2)cc1`: the activation (cAMP increase) was inactive: 1.34%.
As for `Cc1cc(N(CCCl)CCCl)ccc1C=O`, the activation (cAMP increase) is inactive: 2.08%.
For `CCCN1CCC(Nc2cc(OC)cc(OC)c2)CC1` the value was inactive: -1.1% [at 15.4 µM]; for `CN(C)C1(CNC(=O)c2cccc(C#N)c2)CCCCC1`, inactive: -20.1% [at 15.4 µM]; for `CCOC(=O)C(CC)C1=NC(C)(C)Cc2ccccc21.O=[N+]([O-])c1cc([N+](=O)[O-])c(O)c([N+](=O)[O-])c1` (configuration not stated), inactive: 20.5%.
For `CC(C)(C)OC(=O)N1CCC(N(C(=O)c2ccccc2)c2ccc(Cl)cc2)CC1`, the activation (cAMP increase) is inactive: -18.1%.
For the compound `N#Cc1ccc(C(=O)NCC2(N3CCCCC3)CCCCC2)cc1`, the activation (cAMP increase) was inactive: -11% [at 15.4 µM].
With `CCc1cc(C(=O)NCC2(N3CCCCC3)CCCCC2)sc1C`, the activation (cAMP increase) was inactive: 7.21% [at 15.4 µM].
For `O=C(OC1CN2CCC1CC2)C1c2ccccc2C=Cc2ccccc21` (configuration not stated) the value was inactive: -10.7%; for `O=C(O)c1cccc(Nc2c([N+](=O)[O-])cc([N+](=O)[O-])cc2[N+](=O)[O-])c1`, inactive: 1.85%.
`N/C(=N\O)c1c(N)no[n+]1[O-]`: the activation (cAMP increase) was inactive: -5.51%.
`CCOC(=O)N1CCC(Nc2ccc(C)cc2)CC1`: the activation (cAMP increase) was inactive: 4.51% [at 15.4 µM].
As for `COc1ccc(C(=O)NCC2(N3CCOCC3)CCCCC2)cc1OC`, the activation (cAMP increase) is inactive: 2.58%.
Turning to `O=C(NCC1(N2CCOCC2)CCCCC1)c1cc(Br)ccc1Cl`, the activation (cAMP increase) was inactive: 27.7%.
For the compound `COc1cc(C(=O)NCC2(N3CCOCC3)CCCCC2)cc(OC)c1C`, the activation (cAMP increase) is inactive: -19.2%.
`CN1CCC(Nc2ccc(Cl)cc2)CC1`: the activation (cAMP increase) was inactive: -46.7%.
`CCC(CO)(C(=O)OC1CN2CCC1CC2)c1ccccc1` (configuration not stated): the activation (cAMP increase) is inactive: -34.4%.
`COc1cc(OC)cc(C(=O)NCC2(N3CCOCC3)CCCCC2)c1`: the activation (cAMP increase) was inactive: -5.87% [at 15.4 µM].
Turning to `COc1cccc(C(=O)N(c2cc(C)cc(C)c2)C2CCN(C(=O)OC(C)(C)C)CC2)c1`, the activation (cAMP increase) is inactive: -0.636%.
With `CCCOc1ccc(C(=O)NCC2(N(C)C)CCCCC2)cc1`, the activation (cAMP increase) is inactive: -7.39%.
Turning to `CC(C)(C)OC(=O)N1CCC(Nc2ccccc2)CC1`, the activation (cAMP increase) is inactive: -3.62%.
With `O=C(O)C1(Nc2ccccc2)CCN(Cc2ccccc2)CC1`, the activation (cAMP increase) is inactive: -3.01%.
With `CCOc1ncccc1C(=O)NCC1(N2CCOCC2)CCCCC1` the figure was inactive: 1.34%.
Regarding `CN1CCC(Nc2ccc(F)c(Cl)c2)CC1`, the activation (cAMP increase) is inactive: 5.12% [at 15.4 µM].
Consider `O=C(NCC1(N2CCCCC2)CCCCC1)c1ccco1`, for which the activation (cAMP increase) was inactive: 5%.
For `CN(C)c1ccc(C(=O)NCC2(N3CCCCC3)CCCCC2)cc1`, the activation (cAMP increase) was inactive: 1.95% [at 15.4 µM].
On to `Cn1c(=O)[nH]cc(N(CCCl)CCCl)c1=O`, for which the activation (cAMP increase) was inactive: -63.8%.
With `Cc1ccccc1NC1(C#N)CCN(Cc2ccccc2)CC1`, the activation (cAMP increase) is inactive: -1.6%.
With `CCN1CCC(Nc2cccc(F)c2)CC1` the figure was inactive: -21.4%; with `Cc1ccc(NC2(C#N)CCN(Cc3ccccc3)CC2)cc1`, inactive: 17.3% [at 15.4 µM]; with `Cc1ccc(C(=O)NCC2(N3CCCCC3)CCCCC2)o1`, inactive: -34.8%.
Turning to `Fc1ccccc1NC1CCN(Cc2ccccc2)CC1`, the activation (cAMP increase) is inactive: -10.4%.
`Cc1ccc(Nc2c([N+](=O)[O-])cc([N+](=O)[O-])cc2[N+](=O)[O-])cc1`: the activation (cAMP increase) was inactive: -35%.
Consider `COc1cc(OC)cc(C(=O)NCC2(N3CCCCC3)CCCCC2)c1`, for which the activation (cAMP increase) is inactive: -2.4% [at 15.4 µM].
In the case of `CCOC(=O)N1CCC(Nc2cccc(C)c2)CC1`, the activation (cAMP increase) is inactive: -15.6%.
Consider `COc1cc(C(=O)NCC2(N(C)C)CCCCC2)ccc1OC(F)F`, for which the activation (cAMP increase) was inactive: -13% [at 15.4 µM].
With `O=P1(N(CCCl)CCCl)SCCCS1` the figure was inactive: 15.4%.
Consider `CCCCOc1ccc(C(=O)NCC2(N3CCOCC3)CCCCC2)cc1`, for which the activation (cAMP increase) was inactive: -0.764% [at 15.4 µM].
For `O=C(NCC1(N2CCCCC2)CCCCC1)c1ccc(F)cc1`, the activation (cAMP increase) is inactive: -1.29%.
As to `COc1ccc(NC2CCN(CCc3ccccc3)CC2)c(OC)c1`, the activation (cAMP increase) is inactive: -48.2%.
With `CCOC(=O)N1CCC(Nc2ccc(F)cc2)CC1` the figure was inactive: -8.12%; with `CCOc1ccc(C)cc1CN(CCCl)CCCl`, inactive: 14.1% [at 15.4 µM].
With `CCOC(=O)N1CCC(Nc2ccc(OC)cc2)CC1` the figure was inactive: 23.4%.
For `O=C(NCC1(N2CCCCC2)CCCCC1)c1ccc(Cl)s1` the value was inactive: 12%; for `N#CC1(Nc2ccccc2)CCN(Cc2ccccc2)CC1`, inactive: 10.5%.
`O=C(OC1CN2CCC1CC2)C1c2ccccc2Oc2ccccc21` (configuration not stated): the activation (cAMP increase) is inactive: -39.5%.
As to `COc1ccc(Cl)cc1C(=O)NCC1(N2CCOCC2)CCCCC1`, the activation (cAMP increase) is inactive: -26.5%.
Turning to `O=C1C(O)=C([N+](=O)[O-])C(=O)C(O)=C1[N+](=O)[O-]`, the activation (cAMP increase) is inactive: 25.3%.
Turning to `O=C(NCC1(N2CCOCC2)CCCCC1)c1cc2ccccc2o1`, the activation (cAMP increase) was inactive: -9.2%.
With `O=C(NCC1(N2CCCCC2)CCCCC1)c1ccc(Cl)nc1` the figure was inactive: 10.1% [at 15.4 µM]; with `Cc1cc(C)cc(N(C(=O)c2ccccc2)C2CCN(C(=O)OC(C)(C)C)CC2)c1`, inactive: 14.1%; with `CSc1ccccc1C(=O)NCC1(N2CCCCC2)CCCCC1`, inactive: -43.6%.
As to `Cc1cccc(NC2(C#N)CCN(Cc3ccccc3)CC2)c1`, the activation (cAMP increase) was inactive: 0.355% [at 15.4 µM].
As for `O=C(NCC1(N2CCCCC2)CCCCC1)c1cccs1`, the activation (cAMP increase) was inactive: -5.5% [at 15.4 µM].
For `COc1ccc(C(=O)NCC2(N3CCCCC3)CCCCC2)cc1` the value was inactive: -25.3% [at 15.4 µM]; for `CC(C)(C)OC(=O)N1CCC(N(C(=O)c2ccccc2)c2ccc(F)cc2)CC1`, inactive: 3.67%; for `COc1ccc(C(=O)NCC2(N3CCCCC3)CCCCC2)c(OC)c1OC`, inactive: 6.06%.
Turning to `Cc1ccc(C(=O)NCC2(N(C)C)CCCCC2)o1`, the activation (cAMP increase) was inactive: -64.8%.
Turning to `CCCOc1ccc(C(=O)NCC2(N(C)C)CCCCC2)cc1OC`, the activation (cAMP increase) is inactive: -5.14% [at 15.4 µM].
Regarding `O=[N+]([O-])c1cc([N+](=O)[O-])c(Nc2ccc(Cl)cc2)c([N+](=O)[O-])c1`, the activation (cAMP increase) is inactive: -0.77%.
Turning to `CN1CCC(Nc2cccc(F)c2)CC1`, the activation (cAMP increase) is inactive: -81.1%.
For `COc1ccc2c(c1O)-c1c(O)c(OC)cc3c1[C@H](C2)[N+](C)(C)CC3.O=[N+]([O-])c1cc([N+](=O)[O-])c([O-])c([N+](=O)[O-])c1[O-]` the value was inactive: 24.2%; for `O=C(NCC1(N2CCCCC2)CCCCC1)c1cncc(Br)c1`, inactive: -29.9%.
Take `O=C(OC1CN2CCC1CC2)c1ccc([N+](=O)[O-])cc1` (configuration not stated): the activation (cAMP increase) is inactive: -45.7%.
On to `COc1cc(OC)c(C(=O)NCC2(N(C)C)CCCCC2)cc1OC`, for which the activation (cAMP increase) is inactive: -27.5%.
With `O=C(NCC1(N2CCOCC2)CCCCC1)c1cc(F)c(F)cc1Cl`, the activation (cAMP increase) is inactive: 6.44%.
For the compound `COc1ccc(CN(CCCl)CCCl)cc1Cl`, the activation (cAMP increase) was inactive: -23.1%.
With `O=[N+]([O-])c1cc([N+](=O)[O-])c(OC2CCCCC2O)c([N+](=O)[O-])c1` (configuration not stated) the figure was inactive: 11.2% [at 15.4 µM]; with `CN(C)c1cccc(C(=O)NCC2(N3CCCCC3)CCCCC2)c1`, inactive: 0.821%; with `CC(C)c1ccc(NC2CCN(C(=O)OC(C)(C)C)CC2)cc1`, inactive: -5.43% [at 15.4 µM].
Take `CN1CCN(CCOC(=O)C(O)(c2ccccc2)c2ccccc2)CC1`: the activation (cAMP increase) is inactive: -55.4%.
With `CC(C)c1ccc(C(=O)NCC2(N3CCOCC3)CCCCC2)cc1`, the activation (cAMP increase) was inactive: -78.8%.
With `COc1ccc(NC2CCN(C(=O)OC(C)(C)C)CC2)cc1` the figure was inactive: 5.61%; with `COc1cc(C(=O)NCC2(N3CCCCC3)CCCCC2)ccc1OC(F)F`, inactive: -12.1% [at 15.4 µM].
Regarding `O=C(NCC1(N2CCOCC2)CCCCC1)c1cc(=O)[nH]c2ccccc12`, the activation (cAMP increase) was inactive: -12.7%.
With `O=C(NCC1(N2CCCCC2)CCCCC1)c1cccc(C(F)(F)F)c1` the figure was inactive: 2.54%.
As for `O=[N+]([O-])c1cc([N+](=O)[O-])c(NCC2CCS(=O)(=O)C2)c([N+](=O)[O-])c1` (configuration not stated), the activation (cAMP increase) was inactive: 1.43% [at 15.4 µM].
For `O=C(NCC1(N2CCCCC2)CCCCC1)c1cccc([N+](=O)[O-])c1` the value was inactive: -44.7%.
In the case of `CSc1ccc(C(=O)NCC2(N3CCOCC3)CCCCC2)cc1`, the activation (cAMP increase) was inactive: -1.34%.
Consider `CCN1CCC(Nc2ccc(Cl)cc2)CC1`, for which the activation (cAMP increase) is inactive: -24.6%.
On to `N#CC1(Nc2ccccc2)CCN(CCc2ccccc2)CC1`, for which the activation (cAMP increase) is inactive: -15%.
Take `O=C(NCC1(N2CCCCC2)CCCCC1)c1ccc(OC(F)F)cc1`: the activation (cAMP increase) is inactive: 16.2% [at 15.4 µM].
